The source of these data is patent US7781406B2, “Production and use of the methotrexate-albumin conjugate as an immunosuppressive agent in GVHD” (Albupharm Heidelberg GmbH & Co. KG, priority 2004, dated 2010).

This series deals with acute GVHD in F1 hybrid BN/Lew rats. Briefly: GVHD animal experiment: irradiated rats after transplantation of bone marrow cells and T lymphocytes. It counts as in vivo. As for the experimental part:
Animal experiments: (authorization No. LVL M-V310-4/7221.3-1.2-015/03 Landesveterinäramt Mecklenburg-Vorpommern Rostock)
Initial statistically significant experiments with the long-circulating macromolecular MTX-HSA in GVHD animals were carried out in the department of Prof. Dr. M. Freund in Rostock University clinic under the direction of PD Dr G. Hartung and Dr D. Wolff. These entailed 20 female F1 hybrid BN/Lew rats receiving whole-body irradiation with 7.5 Gy (n=10) or 9 Gy (n=10) and then transplantation of 40 million bone marrow cells and 15 million T lymphocytes from female Lew rats.

As to MTX-HSA, for the setting “10 rats per group, 2 mg/kg intraperitoneally on day 0, 4, 8 and 12, whole-body irradiation 7.5 or 9 Gy, transplantation of 40 million bone marrow cells and 15 million T lymphocytes from Lew rats”, the “rats of the group that developed an acute GVHD” value was “only one rat”. Also, the side effects result (GVHD rats, methotrexate-albumin 2 mg/kg i.p. day 0, 4, 8, 12, MTX at equieffective doses) is given as “No significant side effect”.
